In general, IC50 refers to the concentration needed to halve the response being measured.

Read-outs that look alike come from different tables or passages of the source.

From US20110028552A1, “MEXILETINE AMINO ACID AND PEPTIDE PRODRUGS AND USES THEREOF” (priority 2009, published 2011) come the findings set out here.

For this assay, the target named is T1, hNav 1.1 channel (Homo sapiens, UniProt P35498).
T1 construct: expressed in transfected cells
Description: Block of cloned hNav1.1 channel in CHO cells (IonWorks Quattro). Type of assay: cell-based. Here is the method:
Data was corrected for leak current.
The tonic block was calculated as:
% Block (Tonic)=(1−ITP1,TA/ITP1,Control)×100%,
where ITP1, Control and ITP1, TA are the inward peak Na^+ currents elicited by the TP1 in control and in the presence of a test article, respectively. 10 Hz Block—the frequency-dependent block at stimulation frequency 10 Hz was calculated as: […]
where ITP11, Control and ITP11, TA are the inward peak Na^+ currents elicited by the TP11 in control and in the presence of a test article, respectively. The inactivation state block is defined as the decrease in test pulse (TP12) current amplitude due to the conditioning depolarizing pulse (TP11). The inactivation state block was calculated as:
% Block (inactivation state)=(1−(ITP12,TA/ITP12,TA)×100%,
where ITP12, Control and ITP12, TA are the inward peak Na^+ currents elicited by the TP12 in control and in the presence of a test article, respectively. Concentration-response data for the blocks were fit to an equation of the following form: […]

As to Mexiletine arginine amide, the IC50 is 811 µM (hNav1.1, 10 Hz block, rounded values, read-out: IC50 values (with the 10 Hz block)); 811 µM (hNav1.1 in CHO cells, frequency-dependent block at 10 Hz (TP11), read-out: IC50 10 Hz block); 328 µM (hNav1.1 in CHO cells, inactivation state block (TP12), read-out: IC50 Inactivated state); above 1000 µM (hNav1.1 in CHO cells, tonic block (TP1), read-out: IC50 Tonic block). Further, the “IC50 fold above the parent” value (hNav1.1, relative to mexiletine) was around 20 fold.
